In the assay the target is T1, recombinant human methionine adenosyltransferase α2 (MATα2) (human, UniProt P31153 1-395).
T1 construct: human MATα2, pT7.7-MAT2A including the human MAT2A ORF; also called pT7.7-MAT2A; MATα2 homo-oligomers; source: extracts also named for the pull-down
As to the kind of experiment: pull-down; Glutathione-Sepharose loaded with GST-PDRG1 or truncated forms and washed; incubated 1 hour at 4°C with recombinant MATα2 or MATβ alone (purified, 100 μg; extracts also named in the methods) plus excess GST extract; blots with anti-MATα2 and anti-MATβ. The settings on record: both partners purified.

The results in this text go back to PMC4993455 (PLoS ONE, 2016).

B1: GST-PDRG1 (natural protein)
chain: not shown
notes: 9 amino acid linker between GST and PDRG1; rat PDRG1, full ORF (402 bp) in pGEX-5X-1; also called pGEX-PDRG1; tagged-PDRG1; source: E. coli BL21(DE3) Codon Plus; soluble extract loaded on Glutathione-Sepharose (pull-down); purified on Glutathione-Sepharose 4B, eluted with 20 mM GSH (gel filtration, activity); not shown: GST, N-terminal, kept
In the case of B1, the binding result is “binds”.
